Screening results: PubChem, National Center for Advancing Translational Sciences (NCATS)
KDM4E inh – blocks human JMJD2E demethylase activity. JMJD2E catalytic domain, FDH-coupled NADH fluorescence (FDH is formaldehyde dehydrogenase). Potency, µM (series often up to 57.1 µM), actives largely listed as inhibitors. B2RXH2. 1.6% of 230,000 active; active means well fitted inhibition curve with a large enough effect, not every such curve was filed as active; inconclusive means small, poorly fitted or top-dose-only effect, or another doubt; inactive means no such curve, though single readings can be large or run the other way; further: nearly all actives have a fitted effect of over 50% in size
Sfp inh – blocks B. subtilis Sfp PPTase activity | Q9F4F7 | Potency, µM, most hits filed as inhibitors | Biochemical Sfp PPTase activity, qHTS | 3.5% of 310,000 active;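 further: the enzyme is Sfp with the accession as filed and its product quenches rhodamine fluorescence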
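With Hepes-Na pH 7.6 buffer containing 10 mM MgCl2, Sfp (15 nM) modified BHQ-2-YbbR (12.5 uM) using rhodamine-CoA (5 uM). Two reads 30 minutes apart at 525/598 nm yielded each well's rate.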
G9a block – inhibitors of human histone lysine methyltransferase G9a; Q96KQ7; G9a H3K9 monomethylation, AlphaScreen, 2 h; Potency, µM (top dose mostly 102 µM), usual class: inhibitors; 8.8% of 350,000 active; AID 504332; further: nearly all actives have a fitted effect of over 75% in size
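AlphaScreen detection with an anti-monomethyl H3K9 antibody quantified product after a 2 h room-temperature reaction containing 500 nM biotinylated H3K9 peptide, 20 µM SAM and 20 nM enzyme, which had been preincubated 15 min with compound.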
Lamin A splicing – modulators of lamin A splicing. HeLa LMNA splicing GFP/RFP minigene ratio, 48 h. Potency, µM (doses to about 46.1 µM), actives largely listed as inhibitors. 0.01% of 200,000 active. AID 1487; active means well fitted inhibition curve with a large enough effect in the signal ratio, with a control signal flat, not every such curve was filed as active; inconclusive means small, poorly fitted or top-dose-only effect, or effect the other way, or a change in a side signal; the % refers to the signal ratio
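Read-out is the ratio of GFP to DsRed2 object intensity, acquired by 488 nm laser-scanning cytometry on HeLa lamin A-EGFP minigene reporter cells. Compound incubation 48 hrs at 37 °C in Opti-MEM with 2% FBS; DMSO 0.5% final.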
ALDH1A1 block – ALDH1A1 (human) enzyme inhibition; P00352; Purified ALDH1A1, NADH fluorescence, propionaldehyde substrate; Potency, µM (series often up to 75.3 µM), most hits filed as inhibitors; 7.3% of 220,000 active; AID 1030; active means well fitted inhibition curve with a large enough effect, not every such curve was filed as active; inconclusive means small, poorly fitted or top-dose-only effect, or another doubt; inactive means no such curve, though single readings can be large or run the other way
miR-21 reporter – miR-21 reporter, rising signal. 340,000 tested, under 10 active. Potency, µM (highest dose often 38.3 µM). HeLa miR-21 FLuc reporter, luciferase, 48 h. AID 2288; active = well fitted rising curve with a large enough effect; inconclusive = small, poorly fitted or top-dose-only effect; inactive = no such curve, though single readings can be large or run the other way;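 further: miR-21 action dims this reporter so a rising signal means less miR-21 action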
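Using DMEM plus 10% FBS, HeLa miR-21-FLuc cells are incubated with test compounds (final up to about 40uM) for 48 hours; firefly luciferase signal is then imaged following reagent-mediated lysis.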
Of the large screens only hits and unclear results are named; the others gave an inactive call. A selection: hits, their analogues and other compounds. The true share with any hit is near 13%. Unless noted, the call rests on the fitted dose curve; in most records, active means well fitted curve in the direction sought with a large enough effect; inconclusive means small, poorly fitted or top-dose-only effect, or another doubt; inactive means no such curve, though single readings can be large; an effect the other way counts as inactive or inconclusive.

COCCCNC(=S)N1CCCN(c2nc3cc(C)c(C)cc3cc2C#N)CC1	KDM4E inh inconclusive, Sfp inh 28µM, Lamin A splicing inconclusive, ALDH1A1 block inconclusive (no result: G9a block)
CCOc1ccc(OCCCCNCCN)cc1	ALDH1A1 block inconclusive
CCCOc1ccc(OCCCCNC(C)CC)cc1 (stereo not drawn)	KDM4E inh inconclusive, Sfp inh inconclusive, G9a block 2.5µM
CCC(C)NCCOc1cccc(Br)c1 (stereo not drawn)	KDM4E inh inconclusive, G9a block 8.9µM
Cn1nc(-c2ccc(Cl)cc2)c2cc(C(=O)N3CCOCC3)sc21	KDM4E inh inconclusive
COc1ccc(N2CCN(C(=O)c3cc4c(-c5ccc(Cl)cc5)nn(C)c4s3)CC2)cc1	G9a block 35µM
COc1ccc(N2CCN(C(=O)c3cc4c(-c5ccccc5F)nn(C)c4s3)CC2)cc1	G9a block 11µM (no result: KDM4E inh, Sfp inh, Lamin A splicing, ALDH1A1 block)
COc1ccc(NC(=O)Cn2c(=O)c3cc(Cl)ccc3n3nncc23)cc1	none (no result: KDM4E inh, Sfp inh, Lamin A splicing, ALDH1A1 block)
COc1ccc(-c2c(C#N)sc(C(N)=O)c2-c2ccc(OC)cc2)cc1	ALDH1A1 block 2µM (no result: G9a block, Lamin A splicing)
N#Cc1sc(C(N)=O)c(-c2ccccc2)c1-c1ccccc1	G9a block inconclusive, ALDH1A1 block inconclusive (no result: Lamin A splicing)
COc1ccc(C)cc1S(=O)(=O)n1cnc2ccccc21	none (no result: KDM4E inh, Lamin A splicing, ALDH1A1 block)
Cc1cccc(C(=O)NNC(=O)/C=C/C(=O)O)c1	G9a block 35µM, ALDH1A1 block inconclusive (no result: Lamin A splicing)
Cc1cccc(C(=O)NNC(=O)c2cccc(C)c2)c1	none
O=C(O)/C=C/C(=O)NNC(=O)c1ccccc1Br	Sfp inh 56µM, ALDH1A1 block 11µM
Cc1ccccc1C(=O)NNC(=O)C(C)N1C(=O)c2ccccc2C1=O (stereo not drawn)	Sfp inh inconclusive, G9a block 11µM, ALDH1A1 block inconclusive
Cc1ccccc1C(=O)NNC(=O)Nc1ccccc1	none
Cc1ccccc1C(=O)NNC(=O)/C=C\C(=O)O	Sfp inh 22µM, G9a block 4.5µM (no result: Lamin A splicing, ALDH1A1 block)
CCOC(=O)NNc1ccc2nonc2c1[N+](=O)[O-]	KDM4E inh 6.3µM, Sfp inh 20µM, ALDH1A1 block 18µM (no result: G9a block, Lamin A splicing)
CCCn1c(N)c(C(=S)NC(=O)C2CC2)c(=O)n(C)c1=O	Sfp inh 50µM
COC(=O)C1NN=C(C(=O)c2ccc(Cl)cc2)C1c1ccc(OC)cc1 (stereo not drawn)	Lamin A splicing inconclusive, ALDH1A1 block 25µM
CCOC(=O)C1=NNC(C(=O)c2ccc(C)cc2)C1c1ccc(OC)cc1 (stereo not drawn)	G9a block 50µM, ALDH1A1 block inconclusive
N[C@@H](Cc1nn[nH]n1)C(=O)O	none (no result: KDM4E inh, Sfp inh, G9a block, Lamin A splicing, miR-21 reporter)
N[C@H](C(=O)O)c1nn[nH]n1	KDM4E inh 20µM, Sfp inh 89µM (no result: G9a block, Lamin A splicing, miR-21 reporter)
Cc1ccc(-c2noc(COc3ccc(Br)c(C)c3)n2)cc1	none (no result: KDM4E inh, Sfp inh, Lamin A splicing, ALDH1A1 block)
CSc1ccccc1NC(=O)COC(=O)c1c[nH]c(=O)[nH]c1=O	none (no result: G9a block, Lamin A splicing, ALDH1A1 block)
O=C(COC(=O)c1c[nH]c(=O)[nH]c1=O)Nc1ccccc1F	Sfp inh 71µM, G9a block inconclusive, ALDH1A1 block 28µM
CCOC(=O)c1n[nH]n(-c2cc(Cl)cc(Cl)c2)c1=O	none (no result: Lamin A splicing)
CCOC(=O)c1cc(=O)n(-c2ccc(Cl)cc2C)[nH]1	KDM4E inh inconclusive, G9a block 13µM, ALDH1A1 block inconclusive
COC(=O)NC(CC(C)=O)c1ccco1 (stereo not drawn)	none (no result: KDM4E inh, G9a block, Lamin A splicing, miR-21 reporter)
CCc1cc2c(SCc3nc4sc(C(C)=O)c(C)c4c(=O)[nH]3)ncnc2s1	G9a block 20µM, ALDH1A1 block inconclusive
Cc1cccc(N2CCN(Cc3nc(-c4cccc(Oc5ccccc5)c4)oc3C)CC2)n1	KDM4E inh inconclusive, G9a block 40µM
COc1cccc(-c2nc(CS(=O)(=O)CC(=O)N3CCN(c4ccccn4)CC3)c(C)o2)c1	Lamin A splicing inconclusive, ALDH1A1 block 32µM
COc1cccc(-c2nc(CS(=O)(=O)CC(=O)N3CCCCC3)c(C)o2)c1	none (no result: KDM4E inh, Lamin A splicing, ALDH1A1 block)
CC(C)c1cc2c(c(O)c1O)[C@@]13CCCC(C)(C)C1CC2OC3=O (stereo partly drawn)	Sfp inh 4µM, G9a block 0.89µM (no result: KDM4E inh, Lamin A splicing, ALDH1A1 block)
Cc1ccc(C)n1CCN1CCN(CC(=O)Nc2cc(C(F)(F)F)ccc2Cl)CC1	KDM4E inh inconclusive, G9a block inconclusive, Lamin A splicing inconclusive, ALDH1A1 block 28µM
